# Laboratory results from paper PMC8372404 (Frontiers in Neuroscience, 2021).
# System: Danio rerio
# Assay: Novel tank test (NTT)
# Type: in vivo
# Conditions: most informative dosage, Figure 2B
# Experimental: Control groups were treated in parallel with vehicle alone. For drug injection, the fish were anesthetized briefly by placing them in 10°C water. The vehicle controls were tested in parallel.
# Behavioral testing was initiated 10 min after drug injection, starting with the novel tank test (NTT), followed immediately thereafter by the light–dark box (LDB) and the social preference test (SPT). The NTT was adapted from [Maximino et al. (2013)] with the behavior video-recorded and the data processed using EthoVision XT14 (Noldus). The distance traveled, speed, number of visits to the bottom, middle and top thirds of the aquarium, respectively, and the times spent in each of these zones during the initial 5 min in the tank were recorded. […] The behavior in the LDB ([Maximino et al., 2011]) and SPT ([Parker et al., 2014]) was video recorded and processed using RealTimer (Open Science LCC, Russia). […] The time spent and the number of visits to the light and dark flanking zones and the latency to enter the lit zone were recorded during a 5-min session. […] For the SPT, the residence time and the number of visits to the three equally sized zones (near the shoal, in the center zone of the aquarium, and near the wall opposite to the shoal) were assessed during a 5-min session. […]
smiles,measurement,value
CN1C(=O)CN=C(c2ccccc2)c2cc(Cl)ccc21 [Diazepam],"NTT, effect on total distance traveled vs vehicle",unaffected
